Biological target: platelet COX-1 (Homo sapiens, UniProt P23219)
Experiment: COX-1 assay in isolated human whole blood allowed to clot (serum TXB2)
Details: read-out: COX-1 IC50, isolated human whole blood clotting 1 hour at 37°C, means of at least two experiments

Sequences of proteins named here, by UniProt entry; tags and fusion partners are left off. Residues count along the entry.
UniProt P23219, 24-599: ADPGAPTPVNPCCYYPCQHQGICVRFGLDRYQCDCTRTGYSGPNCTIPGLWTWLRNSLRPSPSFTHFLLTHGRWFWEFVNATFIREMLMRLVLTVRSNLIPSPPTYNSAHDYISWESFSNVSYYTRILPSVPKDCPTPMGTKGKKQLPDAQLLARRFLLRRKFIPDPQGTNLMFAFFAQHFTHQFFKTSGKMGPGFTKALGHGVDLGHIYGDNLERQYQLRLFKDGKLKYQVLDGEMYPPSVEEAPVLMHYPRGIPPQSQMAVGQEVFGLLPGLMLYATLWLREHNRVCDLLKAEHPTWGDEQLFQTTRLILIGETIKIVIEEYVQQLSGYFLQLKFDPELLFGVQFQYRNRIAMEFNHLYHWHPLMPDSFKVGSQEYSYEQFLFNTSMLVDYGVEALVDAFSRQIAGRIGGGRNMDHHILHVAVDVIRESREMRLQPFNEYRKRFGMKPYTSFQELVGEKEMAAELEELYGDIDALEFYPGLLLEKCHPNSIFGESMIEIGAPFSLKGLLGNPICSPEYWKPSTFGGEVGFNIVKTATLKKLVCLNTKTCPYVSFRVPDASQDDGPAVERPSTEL

IC50: 27 µM
SMILES: Cc1onc(-c2ccccc2)c1-c1ccc(S(N)(=O)=O)cc1 [Valdecoxib, 4-(5-methyl-3-phenylisoxazol-4-yl)benzenesulphonamide]
